Results: patent publication US6406866B1 (OREGON HEALTH SCIENCES UNIVERSITY, dated 2002)

Chains of the proteins cited; added tags and fusions are not shown. Lines headed by an entry give the natural chain unless they say otherwise; changes in a name come on top.
UniProt P35370: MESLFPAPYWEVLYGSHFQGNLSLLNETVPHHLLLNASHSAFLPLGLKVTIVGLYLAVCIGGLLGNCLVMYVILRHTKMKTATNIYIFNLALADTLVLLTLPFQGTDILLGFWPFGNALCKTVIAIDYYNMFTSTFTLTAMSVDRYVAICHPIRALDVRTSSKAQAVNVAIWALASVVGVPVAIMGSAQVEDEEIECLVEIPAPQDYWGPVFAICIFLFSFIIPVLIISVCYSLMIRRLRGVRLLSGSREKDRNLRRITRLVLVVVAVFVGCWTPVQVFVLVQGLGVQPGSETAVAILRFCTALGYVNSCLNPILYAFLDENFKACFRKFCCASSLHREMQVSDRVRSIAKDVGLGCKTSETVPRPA

Biological target: T1, novel mammalian opioid receptor (MSOR, LC132) (Rattus norvegicus, UniProt P35370)
T1 construct: The entire coding region of the receptor cDNA insert was subcloned in to the RcRSV vector; expressed in transfected cells
Format: binding

With “c[D-penicillamine^2, Dpenicillamine^5]enkephalin [DPDPE]” the “specific binding of the radioactively-labeled opioid agonist or antagonist” value was “no specific binding”.
